The source of these data is PMC4135049 (Molecular nutrition & food research, 2011).

Sequences of proteins named here, by UniProt entry; tags and fusion partners are left off. Residues count along the entry.
UniProt P23219, 24-599: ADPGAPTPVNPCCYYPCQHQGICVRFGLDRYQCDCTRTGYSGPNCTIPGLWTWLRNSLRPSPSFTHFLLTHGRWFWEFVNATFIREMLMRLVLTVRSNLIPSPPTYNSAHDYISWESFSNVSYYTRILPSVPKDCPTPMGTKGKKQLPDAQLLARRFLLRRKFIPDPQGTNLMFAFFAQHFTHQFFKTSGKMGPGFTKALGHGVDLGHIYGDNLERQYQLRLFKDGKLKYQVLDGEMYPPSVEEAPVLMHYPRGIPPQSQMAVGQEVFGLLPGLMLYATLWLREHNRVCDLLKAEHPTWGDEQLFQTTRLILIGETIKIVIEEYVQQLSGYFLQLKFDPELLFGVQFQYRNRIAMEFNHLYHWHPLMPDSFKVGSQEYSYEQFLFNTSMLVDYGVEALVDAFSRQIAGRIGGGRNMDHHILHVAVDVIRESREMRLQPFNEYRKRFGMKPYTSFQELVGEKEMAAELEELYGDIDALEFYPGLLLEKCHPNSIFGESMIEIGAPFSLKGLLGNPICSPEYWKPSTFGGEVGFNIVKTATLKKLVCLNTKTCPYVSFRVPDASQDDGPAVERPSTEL

This experiment concerns the target COX-1 (Homo sapiens, UniProt P23219). Nature of the experiment: COX-1 assay. Type of experiment: biochemical.

By IC50 is commonly meant the concentration that gives 50% inhibition. Higher therefore signals a need for much substance. For `Oc1ccc(/C=C/c2cc(O)cc(O)c2)cc1`, 350 ± 100 nM corresponded to half-maximal inhibition (IC50).
